# Source: ChEMBL document CHEMBL1148491, “Synthesis and pharmacological characterization of nicotinic acetylcholine receptor properties of (+)- and (-)-pyrido-[3,4-b]homotropanes” (J Med Chem, 2006)
# System: Rattus norvegicus
# Assay: Agonist activity on nicotine discrimination in rat at 0.4 mg/kg by lever press assay
# Format: functional
structure (smiles),measurement,value
CN1CCC[C@H]1c1cccnc1 [NICOTINE],Activity,98.3%
